Results on 100 molecules are retold here after PubChem BioAssay AID493091 (Sanford-Burnham Center for Chemical Genomics, 2011).

Sequences of proteins named here, by UniProt entry; tags and fusion partners are left off. A change or cut given only in a name is not applied to a line headed by its entry.
UniProt Q9GZU7: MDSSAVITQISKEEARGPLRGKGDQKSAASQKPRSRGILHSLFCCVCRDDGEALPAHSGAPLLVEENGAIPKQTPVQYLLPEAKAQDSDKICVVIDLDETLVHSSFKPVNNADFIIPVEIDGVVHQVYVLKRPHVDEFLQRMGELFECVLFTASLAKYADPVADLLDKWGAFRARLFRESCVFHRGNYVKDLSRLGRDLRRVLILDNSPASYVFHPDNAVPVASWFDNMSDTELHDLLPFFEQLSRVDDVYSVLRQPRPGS

This is a selection; strong and weak results do not stand in their true shares. The source made the active and inactive calls.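 Rule for the calls: active = inhibition above about 50% at 20 µM (limit read from the data); inactive = the rest.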

For this experiment, the target named is Carboxy-terminal domain RNA polymerase II polypeptide A small phosphatase 1 (Homo sapiens) (UniProt Q9GZU7). Kind of experiment: Scp-1 phosphatase inhibitors, primary screen, biochemical, colorimetric, uHTS (AID 493091).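 Note: plate controls were DMSO wells with enzyme for no effect and wells lacking enzyme for full effect.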 The conditions noted are these: Recombinant Scp1, phosphopeptide, malachite green phosphate absorbance; at 20 µM; hits give high values. Put shortly: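 System: truncated SCP-1 phosphatase (76-261aa); medium: Tris acetate buffer pH 5.5 with MgCl2 and Tween-20; incubation: 45 min room-temperature reaction, 5 min colour, 30 min stabiliser; compound: single 20 µM dose, 1% DMSO; reagent: Phosphorylated 17-residue peptide substrate; read-out: % inhibition at 20 µM; technique: colorimetric free-phosphate detection, absorbance 630 nm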
As for `O=[N+]([O-])c1cc(Oc2ccc([N+](=O)[O-])cc2C(F)(F)F)cc([N+](=O)[O-])c1`, the inhibition was inactive: -4.68%. Then `COc1ccc(N/C(=N/P(=O)(N2CCOCC2)N2CCOCC2)N2CCOCC2)cc1`, with inactive: -8.95%. Then `Cc1c2c(nc3ccccc13)SC(C(Cl)Cl)C2` (stereo not given), with inactive: -2.82%; and `O=C(OC1CN2CCC1CC2)C12CC3CC(CC(C3)C1)C2` (stereo not given), with inactive: -10.4%; and `Cc1cc(=O)[nH]c(N[N+](=O)[O-])n1`, with inactive: 2.1%.

`O=P1(N(CCCl)CCCl)OCCCN1CCCl` (stereo not given): the inhibition is inactive: -1.8%. Next, `O=P1(N(CCCl)CCCl)Nc2ccccc2N1`: inactive: -32.5%; `COc1ccc2nc(NP(=O)(c3ccccc3)c3ccccc3)sc2c1`: inactive: -6.05%; `COc1cc(I)ccc1[As](=O)(O)O`: inactive: -5.75%. Then `ClCCSc1nnc(-c2cccnc2)o1`, with inactive: -5.01%; and `COC(=O)C1(C)COP(=O)(N2CCCCCC2)OC1` (stereo not given), with inactive: -0.31%. Then `CC(C)c1ccc(OP(=O)(Nc2ccccn2)Oc2ccccc2F)cc1` (stereo not given), with inactive: 0.86%. `CC(C)NC(=O)NP(=O)(Oc1ccccc1)Oc1ccccc1`: the inhibition is inactive: 4.49%. As to `O=C(OC1CN2CCC1CC2)c1cccc2[nH]cnc12` (stereo not given), the inhibition was inactive: -2.17%.

In the case of `CCN(CC)C(=S)SC(NC=O)C(Cl)(Cl)Cl` (stereo not given), the inhibition was inactive: -4.53%. Take `O=[N+]([O-])c1cc([N+](=O)[O-])c(-c2ccn[nH]2)s1`: the inhibition is inactive: -8.66%. Then `C[As](=O)(O)c1cccc(C(=O)O)c1`, with inactive: -11%; and `O=[As](O)(c1ccc(O)cc1)c1ccccc1O`, with inactive: -3.96%; and `O=[N+]([O-])c1ccc(-c2cc([N+](=O)[O-])c(O)c([N+](=O)[O-])c2)cc1`, with inactive: 7.97%. Next, `COc1cc(C(=O)NCC2(N3CCOCC3)CCCCC2)ccc1OCC(C)C`: inactive: 5.82%. Regarding `Cc1ccc(OP(=O)(Nc2ccc([N+](=O)[O-])cn2)Oc2ccc(C)cc2)cc1`, the inhibition was inactive: -4.19%. Then `Cc1ccc2nc3c(c(C)c2c1)CC(C(Cl)Cl)S3` (stereo not given), with inactive: 2.68%.

Turning to `CCOC(=O)Nc1cccc([As](=O)(O)O)c1`, the inhibition was inactive: 4.15%. `O=P(Nc1ccccn1)(c1cccc2ccccc12)c1cccc2ccccc12`: the inhibition was inactive: -1.41%. Next, `Cc1cc(SC(NC=O)C(Cl)(Cl)Cl)ncn1` (stereo not given): inactive: 1.17%; `O=[N+]([O-])c1ccc(Nc2ccc(Oc3ccc([N+](=O)[O-])cc3[N+](=O)[O-])cc2)c([N+](=O)[O-])c1`: inactive: 22.5%. In the case of `CCOC(=O)Nc1ccc([As](=O)(O)O)c(O)c1`, the inhibition is inactive: -7.43%. Next, `CC1CCNP(=O)(N(CCCl)CCCl)O1` (stereo not given): inactive: -0.04%; `CCCCOc1ccc(C(=O)NCC2(N3CCCCC3)CCCCC2)cc1OC`: inactive: -2.31%. Next, `Cc1cc(SC(NC(=O)c2ccccc2)C(Cl)(Cl)Cl)nc(C(C)C)n1` (stereo not given): inactive: 1.32%. Next, `O=C(OC1CN2CCC1CC2)c1cccc([N+](=O)[O-])c1` (stereo not given): inactive: -12.1%; `CCOC(=O)c1ccc(NC(=O)C(C)(CCl)SC)cc1` (stereo not given): inactive: 0.35%; `CCC(C)N(CC(C)C)C(=S)SC(NC(C)=O)C(Cl)(Cl)Cl` (stereo not given): inactive: -17.3%. `COP1(=S)c2c(C)nn(CCC#N)c2N=C(c2ccc(F)cc2)N1C` (stereo not given): the inhibition was inactive: -2.46%.

`O=C(COc1ccccc1)OC1CN2CCC1CC2` (stereo not given): the inhibition is inactive: 2.71%.

With `O=C(Nc1ccncc1[N+](=O)[O-])c1ccc([N+](=O)[O-])cc1[N+](=O)[O-]`, the inhibition is inactive: -7.31%. For the molecule `COc1ccccc1CNC(=O)COC(=O)C(O)(c1ccccc1)c1ccccc1`, the inhibition is inactive: -7.58%. Then `CC(C)/C=N\N=C(\N)N[N+](=O)[O-]`, with inactive: -2.34%.

In the case of `CN(C(=O)Cc1ccc(Cl)c(Cl)c1)[C@@H]1CCCC[C@H]1N1CCCC1`, the inhibition is inactive: 1.31%.

Consider `CC1(CBr)Cn2c(nc3ccccc3c2=O)S1` (stereo not given), for which the inhibition is inactive: -10.1%. Then `O=P1(Nc2ccccn2)COc2ccccc2OC1`, with inactive: 0.45%; and `CCC1=CC2Cc3nc4ccc(Cl)cc4c(N)c3C(C1)C2` (stereo not given), with inactive: -2.03%.

Regarding `CCOP(=O)(NC(=NC(C)c1ccccc1)NC(C)c1ccccc1)OCC` (stereo not given), the inhibition is inactive: -4.42%.

Regarding `CCOP(=O)(Nc1ccc(C)cn1)OCC`, the inhibition is inactive: 3.63%. With `CN(CCCl)Cc1cc(Cl)c(NC2=NCCN2)c(Cl)c1`, the inhibition was inactive: 3.84%.

`Clc1n[nH]nc1-c1nn[nH][15n]1`: the inhibition is inactive: -6.81%. Turning to `CC(C)(C)C(=O)NC(Sc1ncccn1)C(Cl)(Cl)Cl` (stereo not given), the inhibition was inactive: 3.46%. Next, `O=P1(Nc2ncccn2)COc2ccccc2OC1`: inactive: -4.28%; `Nc1cccc([As](=O)(O)c2ccccc2)c1`: inactive: -1.69%. Then `O=[As](O)(c1cccs1)c1cccs1`, with inactive: -4.44%; and `Cc1ccc(OCC(=O)OC2CN3CCC2CC3)cc1` (stereo not given), with inactive: 2.96%.

In the case of `O=P1(Nc2ccc(Br)cn2)COc2ccccc2OC1`, the inhibition is inactive: -8.38%. Then `NS(=O)(=O)c1cccc(NC(=O)COC(=O)C(O)(c2ccccc2)c2ccccc2)c1`, with inactive: -3.29%; and `Cc1nn(-c2ccccc2)c2c1P(=O)(N1CCOCC1)N(C)C(c1ccccc1)=N2` (stereo not given), with inactive: -2.62%. Take `CC1CCC(C(C)C)C(OP(=O)(Nc2ccccn2)c2ccccc2)C1` (stereo not given): the inhibition is inactive: 5.59%.

For `Cc1ccc(C(=O)OC2CN3CCC2CC3)cc1` (stereo not given), the inhibition was inactive: -11%. Then `CN(C)C1(CNC(=O)c2ccc(S(C)(=O)=O)cc2)CCCCC1`, with inactive: -8.95%; and `O=C(/C=C/c1ccccc1)OC1CN2CCC1CC2` (stereo not given), with inactive: 6.53%; and `CCCC1OP(=O)(Nc2ccccc2)OCC1CC` (stereo not given), with inactive: -9.59%. Then `NC(=O)Nc1ccc([As](=O)(O)O)cc1`, with inactive: 0.8%; and `N#CCCN(C(=O)COC(=O)C(O)(c1ccccc1)c1ccccc1)c1ccc(F)cc1`, with inactive: -1.18%; and `CN(C(=O)Cc1ccccc1)[C@@H]1CC[C@]2(CCCO2)C[C@H]1N1CCCC1`, with inactive: -3.76%. Then `CCOP1(=S)c2c(C)nn(CCC#N)c2N=C(c2ccc(F)cc2)N1C` (stereo not given), with inactive: 3.54%; and `O=[N+]([O-])c1ccc2c(c1)nnn2O`, with inactive: 0.54%. In the case of `CN(C)C(=O)c1cc([N+](=O)[O-])cc2c1-c1c(cc([N+](=O)[O-])cc1[N+](=O)[O-])C2=O`, the inhibition is inactive: -14.9%.

As to `CN(C(=O)Cc1ccc(Cl)c(Cl)c1)[C@H]1CC[C@@]2(CCCO2)C[C@@H]1N1CCCC1`, the inhibition is inactive: 19%. Next, `CCOP1(=S)c2c(C)nn(CCC#N)c2N=C(c2ccccc2F)N1C` (stereo not given): inactive: 0.3%; `O=P(Nc1nccs1)(Oc1ccccc1)Oc1ccccc1`: inactive: -2.82%.

For the molecule `O=P(Nc1nccs1)(c1ccccc1)c1nc2ccccc2s1` (stereo not given), the inhibition is active: 99%. Next, `CS(=O)(=O)c1cc([N+](=O)[O-])c2no[n+]([O-])c2c1`: inactive: 27.3%; `Nc1ccccc1[As](=O)(O)c1ccccc1`: inactive: 2.54%.

With `O=C(O)COc1ccc([As](=O)(O)O)cc1[N+](=O)[O-]`, the inhibition is inactive: 0.85%. Consider `Nc1cccc2c([As](=O)(O)O)cccc12`, for which the inhibition was inactive: 6.32%. Turning to `Cc1ccc(NCCc2c([N+](=O)[O-])cc([N+](=O)[O-])cc2[N+](=O)[O-])cc1`, the inhibition was inactive: -5.24%. Regarding `CCCOP(=S)(Nc1nc(N)cc(=O)[nH]1)OCCC`, the inhibition was inactive: -7.74%. Next, `COc1cc(C2NCCC3(OCCO3)C2(C)C)cc(OC)c1OC` (stereo not given): inactive: -2.73%.

With `CCOP(=O)(Nc1cccc2ccccc12)OCC`, the inhibition was inactive: -6.33%. Next, `O=C(OC1CN2CCC1CC2)c1ccc(Cl)cc1` (stereo not given): inactive: -0.65%; `O=[As](O)(O)c1cccnc1`: inactive: -1.97%; `COc1cc(C(=O)NCC2(N3CCOCC3)CCCCC2)cc(Cl)c1OC(C)C`: inactive: -1.26%. Then `CS(=O)(=O)c1ccc(Cl)c(NC(=O)COC(=O)C(O)(c2ccccc2)c2ccccc2)c1`, with inactive: -9.49%.

As for `Cc1cccc(OCC(=O)OC2CN3CCC2CC3)c1` (stereo not given), the inhibition was inactive: -1.59%. Then `O=[As](O)(c1cccc(O)c1)c1cccc(O)c1`, with inactive: -7.37%; and `Cc1ccccc1CN(C)C(=O)COC(=O)C(O)(c1ccccc1)c1ccccc1`, with inactive: -0.14%. Then `C[C@H]1OP(=O)(Oc2ccccc2)C[C@@H]2O[C@@H]21` (stereo not given in full), with inactive: -2.7%. Next, `C[C@@H]1C=CCP(=O)(Oc2ccccc2)O1` (stereo not given in full): inactive: -2.33%; `CC(=O)c1ccc(N2CC2c2ccncc2)cc1` (stereo not given): inactive: -9.05%. Consider `N#C/C(=C\c1ccc(N(CCBr)CCBr)cc1)C(N)=O`, for which the inhibition is inactive: 7.12%.

Take `COC(=O)C1(C)COP(=O)(NCc2ccccc2)OC1` (stereo not given): the inhibition was inactive: 2.17%.

Turning to `CC(=O)Nc1ccc([As](=O)(O)O)c(O)c1`, the inhibition is inactive: -8.45%. Next, `CC(=O)Nc1ccc(Oc2c([N+](=O)[O-])cc([N+](=O)[O-])cc2[N+](=O)[O-])cc1`: inactive: -3.02%.

Regarding `O=P1(Nc2nc3ccc(Cl)cc3s2)COc2ccccc2O1` (stereo not given), the inhibition was inactive: -4.34%. Turning to `CCOc1ccc(C2=NCC(CBr)S2)cc1` (stereo not given), the inhibition was inactive: -5.95%.

In the case of `CC(C)(C)C(=O)NC(Sc1ccccc1)C(Cl)(Cl)Cl` (stereo not given), the inhibition was inactive: -1.41%. As to `CCc1cc(O)c([N+](=O)[O-])c(C)c1[N+](=O)[O-]`, the inhibition is inactive: -5.38%.

Turning to `O=C(OC1CN2CCC1CC2)c1ccccc1` (stereo not given), the inhibition is inactive: 0.1%. For `CCC(=O)N1C2C3N(C(=O)CC)C1C1N(C(=O)CC)C(C(N1C(=O)CC)N3C(=O)CC)N2C(=O)CC`, the inhibition is inactive: -0.56%. With `COC(=O)c1cc2c(s1)N=C(c1ccccc1)N(C)P2(=O)N1CCOCC1` (stereo not given), the inhibition was inactive: 1.08%.

In the case of `Cc1ccc(OP(=O)(Nc2ccccn2)Oc2ccc(C)cc2)cc1`, the inhibition was inactive: -1.31%.

`CC(=O)NC(SC(=S)N(CC(C)C)CC(C)C)C(Cl)(Cl)Cl` (stereo not given): the inhibition is inactive: -0.04%.

For orientation: inhibition means the change of the read-out against control, counted positive when it falls.
